Measured values taken from patent EP2933270B1, “ARTEANNUIN CYCLODEXTRIN CONJUGATE AND PREPARING METHOD THEREOF” (KPC Pharmaceuticals, Inc., priority 2012, dated 2014).

Test: Solubility in water
Description: The arteannuin-cyclodextrin conjugate according to the present invention uses a cyclodextrin as a carrier, and a molecule of an arteannuin compound is connected, via an amide bond formed between the carboxyl group thereof and any amine group of the cyclodextrin modified by an amine group, to the cyclodextrin.

[1] = isolated product of the example

| Substance | solubility [1] | solubility |
| --- | --- | --- |
| conjugate of mono-[3-(diethylenetriamine)-6-deoxy]-α-cyclodextrin and the compound in which C-12 of the arteannuin was connected with a phenoxy group [Example 7] | 88 mg/mL | – |
| conjugate of mono-[6-(triethylenetetraamine)-6-deoxy]-γ-cyclodextrin and the compound in which C-12 of the arteannuin was connected with a phenoxy group [Example 8] | 95 mg/mL | – |
| mono-[3-(diethylenetriamine)-6-deoxy]-α-cyclodextrin-artesunate conjugate [Example 3] | 78 mg/mL | – |
| mono-[6-(ethanolamine)-6-deoxy]-γ-cyclodextrin-artesunate conjugate [Example 4] | – | 75 mg/mL |
| mono-[6-(monoamine)-6-deoxy]-β-cyclodextrin-artesunate conjugate [Example 2] | – | 45 mg/mL |

Where two headings read alike, the source gives them in different places.
